For this assay, the target named is NT-26 Aio (recombinant arsenite oxidase, AioBA) (Pseudorhizobium banfieldiae, UniProt Q6VAL8). Kind of assay: DCPIP reduction assay. Conditions: DCPIP as artificial electron acceptor; 50 mM MES pH 5.5; 25°C.

Sequences of proteins named here, by UniProt entry; tags and fusion partners are left off. A change or cut given only in a name is not applied to a line headed by its entry.
UniProt Q6VAL8: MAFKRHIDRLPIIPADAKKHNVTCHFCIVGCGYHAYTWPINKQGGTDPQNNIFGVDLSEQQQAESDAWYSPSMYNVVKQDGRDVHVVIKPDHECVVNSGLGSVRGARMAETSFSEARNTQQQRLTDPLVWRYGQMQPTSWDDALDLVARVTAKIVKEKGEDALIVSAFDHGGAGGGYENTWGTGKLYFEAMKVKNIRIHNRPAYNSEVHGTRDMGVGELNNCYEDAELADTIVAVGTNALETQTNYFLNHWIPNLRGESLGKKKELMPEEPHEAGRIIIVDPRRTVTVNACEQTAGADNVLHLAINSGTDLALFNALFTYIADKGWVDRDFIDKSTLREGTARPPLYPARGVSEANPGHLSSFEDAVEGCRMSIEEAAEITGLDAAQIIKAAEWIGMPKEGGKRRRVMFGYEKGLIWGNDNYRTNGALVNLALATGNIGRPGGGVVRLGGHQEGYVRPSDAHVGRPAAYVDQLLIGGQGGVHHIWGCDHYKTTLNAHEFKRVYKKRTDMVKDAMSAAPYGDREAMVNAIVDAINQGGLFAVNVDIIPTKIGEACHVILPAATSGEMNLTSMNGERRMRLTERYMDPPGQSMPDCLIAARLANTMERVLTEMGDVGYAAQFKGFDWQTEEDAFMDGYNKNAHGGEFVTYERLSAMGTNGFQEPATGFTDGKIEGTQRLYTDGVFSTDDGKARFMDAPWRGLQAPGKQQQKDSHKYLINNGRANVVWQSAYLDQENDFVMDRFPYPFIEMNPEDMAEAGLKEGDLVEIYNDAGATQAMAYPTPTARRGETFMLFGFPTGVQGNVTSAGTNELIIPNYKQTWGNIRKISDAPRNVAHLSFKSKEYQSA

With `O[As](O)O`, the Km amounted to 68 µM.

One may read the Km as the substrate concentration at which the rate is half of its maximum.

Source of the values: publication PMC3758308, “The Respiratory Arsenite Oxidase: Structure and the Role of Residues Surrounding the Rieske Cluster” (2013).
